{
  "source": "PubChem BioAssay AID1208",
  "about": "(EPA DSSTox, 2008)",
  "test_system": "rat chronic carcinogenicity bioassay, TD50",
  "experiment": "DSSTox (CPDBAS) Carcinogenic Potency Database Summary Rat Bioassay Results",
  "settings": "for outcome: TD50_Rat_Note: no positive results; for Potency: active compounds read low",
  "description": "The Carcinogenic Potency Database (CPDB) is a unique and widely used international resource of the results of over 6500 chronic, long-term animal cancer tests on over 1500 chemical substances. The CPDB provides easy access to the bioassay literature, with qualitative and quantitative analyses of both positive and negative experiments that have been published over the past 50 years in the general literature and by the National Cancer Institute/National Toxicology Program. The CPDB standardizes the diverse literature of cancer bioassays that vary widely in protocol, histopathological examination and nomenclature, and in the published author's choices of what information to provide in their papers. Results are reported in the CPDB for tests in rats, mice, hamsters, dogs, and nonhuman primates, and are based on the most positive result among all experiments for each sex-species. The DSSTox CPDBAS (all species) file incorporates data from the CPDB Summary Tables for the full list of over 1500 chemical substances tested in at least one species. Summary bioassay results for Rat (TD50, tumor sites, male, female, both sexes) are provided in the CPDB Summary Tables and the DSSTox CPDBAS file for over 1200 chemical substances.\nTD50 is a standardized quantitative measure of carcinogenic potency (analogous to an LD50) and is reported in the CPDB Summary Table for each species. Activity Score for actives is computed by mapping of LOG10 (1/TD50_Rat_mmol) activity values spanning range [MIN, MAX] onto Integer 1-100 Activity Score range, where 100 is highest potency and 1 is lowest: Activity Score = 100 * INTEGER[(log10(1/Activity) - MIN)/(MAX - MIN)]. If activity is reported but no TD50_Rat_mmol value is computed, such as for a mixture, the Activity Score is assigned the activity value \"50\". […] Target sites are reported for each sex-species group with a positive result in the CPDB on the basis of a positive author's opinion for the particular site, using all results from both the general literature and NCI/NTP bioassays. If a chemical has two or more target sites listed, the results may be from different experiments, and a single site may be a target organ in more than one experiment, as well. Blank entry in TargetSites field indicates no results reported.",
  "key": {"[1]": {"settings": "TargetSites_Rat_Female: no positive results"}},
  "note": "Active and inactive are the calls of the source.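 How the source made its calls: active means at least one rat sex group has a carcinogenic potency value and tumor site recorded; inconclusive means only rat studies were judged inadequate by the national testing program; inactive means no potency or tumor site, with negative rat experiments.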",
  "data": [
    {"compound": "ClCl", "values": [
      {"measurement": "outcome", "setting": "[1]", "result": "inactive; no positive results"}
    ]},
    {"compound": "CN[N+](=O)[O-]", "values": [
      {"measurement": "Potency", "setting": "TD50_Rat_Note: TD50 is harmonic mean of more than one positive test, TargetSites_Rat_Female: nervous system", "result": 17.4, "unit": "mg/kg/day"}
    ]},
    {"compound": "CN(C)[N+](=O)[O-]", "values": [
      {"measurement": "Potency", "setting": "TargetSites_Rat_Female: liver, nasal cavity", "result": 0.547, "unit": "mg/kg/day"}
    ]},
    {"compound": "COP(C)(=O)OC", "values": [
      {"measurement": "Potency", "setting": "[1]", "result": 700, "unit": "mg/kg/day"}
    ]},
    {"compound": "O=[N+]([O-])c1cc([N+](=O)[O-])cc([N+](=O)[O-])c1", "values": [
      {"measurement": "outcome", "setting": "[1]", "result": "inactive; no positive results"}
    ]},
    {"compound": "Cc1ccc([N+](=O)[O-])cc1[N+](=O)[O-]", "values": [
      {"measurement": "Potency", "setting": "TD50_Rat_Note: TD50 is harmonic mean of more than one positive test, TargetSites_Rat_Female: liver, mammary gland", "result": 6.21, "unit": "mg/kg/day"},
      {"measurement": "outcome", "result": "inactive; no positive results"},
      {"measurement": "outcome", "setting": "[1]", "result": "inactive; no positive results"},
      {"measurement": "Potency", "result": 8.02, "unit": "mg/kg/day"}
    ]},
    {"compound": "O=[N+]([O-])OCC(CO[N+](=O)[O-])(CO[N+](=O)[O-])CO[N+](=O)[O-]", "values": [
      {"measurement": "outcome", "setting": "[1]", "result": "inactive; no positive results"}
    ]},
    {"compound": "Cc1c([N+](=O)[O-])cccc1[N+](=O)[O-]", "values": [
      {"measurement": "Potency", "setting": "TD50_Rat_Note: TD50 is harmonic mean of more than one positive test", "result": 0.292, "unit": "mg/kg/day"}
    ]}
  ]
}
